Where two headings read alike, the source gives them in different places.
How the values were obtained:
[1] = biological target: T1, LRRK2 R1441G/Y1699C/G2019S triple mutant protein (pS1292 autophosphorylation) in inducible HEK293 cells (Homo sapiens, UniProt Q5S007, G2019S/R1441G/Y1699C); conditions: doxycycline-induced LRRK2 cells
[2] = biological target: T1, LRRK2 R1441G/Y1699C/G2019S triple mutant protein (pS1292 autophosphorylation) in inducible HEK293 cells; test: cell-based

Protein sequences, listed by entry. Tags and fused reporters are not part of them.
UniProt Q5S007, whole entry R1441G/Y1699C/G2019S: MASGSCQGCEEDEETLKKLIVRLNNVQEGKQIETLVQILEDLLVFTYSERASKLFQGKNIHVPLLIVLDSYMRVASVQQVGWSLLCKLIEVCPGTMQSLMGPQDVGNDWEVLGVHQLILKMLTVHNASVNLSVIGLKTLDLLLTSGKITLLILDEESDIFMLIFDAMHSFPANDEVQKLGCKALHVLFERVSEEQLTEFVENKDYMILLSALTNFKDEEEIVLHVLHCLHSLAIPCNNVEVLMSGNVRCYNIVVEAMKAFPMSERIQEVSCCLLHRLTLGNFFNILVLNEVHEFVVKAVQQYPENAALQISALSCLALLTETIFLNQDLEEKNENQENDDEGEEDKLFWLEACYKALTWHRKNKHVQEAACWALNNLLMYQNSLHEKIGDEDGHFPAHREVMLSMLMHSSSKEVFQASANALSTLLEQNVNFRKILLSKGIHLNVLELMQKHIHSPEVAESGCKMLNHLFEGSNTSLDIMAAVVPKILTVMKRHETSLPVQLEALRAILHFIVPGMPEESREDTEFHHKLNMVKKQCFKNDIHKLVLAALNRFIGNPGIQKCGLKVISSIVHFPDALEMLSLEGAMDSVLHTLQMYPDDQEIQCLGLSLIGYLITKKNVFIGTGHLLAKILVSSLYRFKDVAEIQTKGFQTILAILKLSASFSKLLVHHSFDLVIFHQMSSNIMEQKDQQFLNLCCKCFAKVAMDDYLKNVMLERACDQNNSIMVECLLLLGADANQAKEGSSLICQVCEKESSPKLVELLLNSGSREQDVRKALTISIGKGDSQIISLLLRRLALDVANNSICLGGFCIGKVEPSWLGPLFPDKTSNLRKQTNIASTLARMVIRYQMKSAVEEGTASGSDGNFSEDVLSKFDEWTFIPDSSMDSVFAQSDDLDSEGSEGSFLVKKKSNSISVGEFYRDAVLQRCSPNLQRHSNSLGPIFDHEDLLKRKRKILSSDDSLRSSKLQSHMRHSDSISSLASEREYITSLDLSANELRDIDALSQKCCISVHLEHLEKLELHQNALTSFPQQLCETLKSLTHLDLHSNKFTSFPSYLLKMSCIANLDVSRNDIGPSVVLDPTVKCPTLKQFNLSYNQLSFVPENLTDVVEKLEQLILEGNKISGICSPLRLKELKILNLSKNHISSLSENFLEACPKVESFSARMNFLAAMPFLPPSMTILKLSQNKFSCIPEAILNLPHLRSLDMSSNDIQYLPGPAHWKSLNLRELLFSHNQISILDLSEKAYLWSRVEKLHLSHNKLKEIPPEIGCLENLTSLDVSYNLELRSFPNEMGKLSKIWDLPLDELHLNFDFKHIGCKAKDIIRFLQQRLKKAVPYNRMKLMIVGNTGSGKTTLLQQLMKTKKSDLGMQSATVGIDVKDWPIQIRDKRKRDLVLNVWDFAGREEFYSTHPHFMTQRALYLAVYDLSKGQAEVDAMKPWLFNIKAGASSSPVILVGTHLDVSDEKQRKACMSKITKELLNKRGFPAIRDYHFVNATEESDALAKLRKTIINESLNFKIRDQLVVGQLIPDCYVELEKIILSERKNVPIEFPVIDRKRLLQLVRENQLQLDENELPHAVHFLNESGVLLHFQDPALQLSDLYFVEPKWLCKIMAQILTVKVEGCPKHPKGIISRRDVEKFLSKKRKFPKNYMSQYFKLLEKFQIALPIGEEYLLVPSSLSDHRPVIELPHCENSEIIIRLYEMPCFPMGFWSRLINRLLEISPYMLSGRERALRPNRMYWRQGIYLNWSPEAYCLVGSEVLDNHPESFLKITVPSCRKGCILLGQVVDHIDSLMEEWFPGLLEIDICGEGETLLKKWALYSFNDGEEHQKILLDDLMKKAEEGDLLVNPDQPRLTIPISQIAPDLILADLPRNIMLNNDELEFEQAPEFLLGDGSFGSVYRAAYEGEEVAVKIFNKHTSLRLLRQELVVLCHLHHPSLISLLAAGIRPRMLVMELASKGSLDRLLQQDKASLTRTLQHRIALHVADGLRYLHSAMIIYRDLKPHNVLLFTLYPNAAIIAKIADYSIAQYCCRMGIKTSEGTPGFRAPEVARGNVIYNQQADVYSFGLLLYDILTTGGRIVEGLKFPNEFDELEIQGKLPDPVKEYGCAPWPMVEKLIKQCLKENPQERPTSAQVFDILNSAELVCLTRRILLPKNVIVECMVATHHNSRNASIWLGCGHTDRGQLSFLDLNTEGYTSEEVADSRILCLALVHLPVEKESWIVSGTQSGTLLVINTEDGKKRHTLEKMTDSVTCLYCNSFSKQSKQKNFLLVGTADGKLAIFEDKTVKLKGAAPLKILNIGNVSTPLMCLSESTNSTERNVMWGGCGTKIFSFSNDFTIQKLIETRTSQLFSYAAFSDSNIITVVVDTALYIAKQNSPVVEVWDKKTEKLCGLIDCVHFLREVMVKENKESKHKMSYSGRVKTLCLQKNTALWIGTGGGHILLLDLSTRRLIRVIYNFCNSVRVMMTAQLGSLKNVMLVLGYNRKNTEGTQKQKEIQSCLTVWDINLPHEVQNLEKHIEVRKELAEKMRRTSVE

| SMILES | reduction of pS1292 / pLRRK2 signal in cells [1] | IC50 [2] [nM] | IC50 ([2]; observed cellular IC50 (pLRRK2 levels), LRRK2 cell-based assay (text, FIG. 7B)) [nM] |
| --- | --- | --- | --- |
| CNc1nc(Nc2ccc(C(=O)N3CCOCC3)cc2OC)ncc1C(F)(F)F [G1023, [3-methoxy-4-(4-methylamino-5-trifluoromethyl-pyrimidin-2-ylamino)-phenyl]-morpholin-4-yl-methanone] | efficiently reduced pLRRK2 levels in a dose-dependent manner | 1.6 | 10 |
| CCN(CC)CCNC(=O)c1c(C)[nH]c(/C=C2\C(=O)Nc3ccc(F)cc32)c1C [Sutent, reference compound] | dose-dependent reduction of pS1292 signal |  |  |
